Data reported in patent US11712461B2, “Long-acting polypeptide composition for treating atrial fibrillation and its application” (THE FIRST AFFILIATED HOSPITAL OF XI'AN JIAOTONG UNIVERSITY, priority 2021, dated 2023).

Tested on: Beagle dogs with atrial fibrillation
Assay: Holter electrocardiogram analysis of beagle dogs with atrial fibrillation treated with the polypeptide
Assay type: in vivo, beagle dog
Conditions: inferred from good therapeutic effect with subcutaneous injection once a day in dogs
Excerpt: (1) Establishing a large animal model: male beagle dogs from 12 to 18 months old, provided by the Animal Experimental Center of Xi'an Jiaotong University School of Medicine, using self-control method, real-time monitoring of beagle dog electrocardiogram through holter to determine whether atrial fibrillation occurred. And recording the baseline, the ECG when the atrial fibrillation occurred and after the polypeptide intervention.
(3) Polypeptide treatment method: dissolving the polypeptide in physiological saline, and injecting 5*10^−9 mol/kg into the loose subcutaneous tissue at the back of the beagle' neck every day, once a day, record the injection time, and record the injection continuously for 5 days.
(4) Electrocardiogram detection method: the large-scale detection indicators in this experiment were all carried out by holter (FIG. 2). Beagle dogs were anesthetized, their hair was shaved, and electrodes were attached. After the connection was established, the ECG monitoring was started. […]
2) The electrocardiogram and atrial fibrillation events of dogs with atrial fibrillation were analyzed by Holter, and the electrocardiograms and atrial fibrillation events of normal dogs, atrial fibrillation dogs and beagle dogs treated with peptides were compared. […]

half-life: long half-life
SMILES: CC[C@H](C)[C@H](NC(=O)[C@H](CO)NC(=O)C(CC(N)=O)NC(=O)[C@H](CC(C)C)NC(=O)[C@H](Cc1ccc(O)cc1)NC(=O)[C@H](CCCCN)NC(=O)[C@H](CCCCN)NC(=O)[C@@H](NC(=O)[C@H](C)NC(=O)[C@H](CCSC)NC(=O)[C@H](CCC(N)=O)NC(=O)[C@H](CCCCN)NC(=O)[C@H](CCCNC(=N)N)NC(=O)[C@H](CC(C)C)NC(=O)[C@H](CCCNC(=N)N)NC(=O)[C@@H](NC(=O)[C@H](Cc1ccc(O)cc1)NC(=O)[C@H](CC(N)=O)NC(=O)[C@H](CC(=O)O)NC(=O)[C@H](C)NC(=O)[C@H](N)Cc1ccccc1)[C@@H](C)O)C(C)C)C(=O)N[C@@H](CC(C)C)C(=O)N[C@@H](CC(N)=O)C(N)=O (stereo partly shown) [Polypeptide VA]
